The values below are quoted from earlier work in patent US20150126551A1, “USE OF A […] HALIDE DERIVATIVE IN THE TREATMENT OF NEURODEGENERATIVE DISEASES” (Orphazyme ApS, priority 2003, published 2015).

The series concerns patients suffering from ALS. The settings on record: Miller et al. 2002, Cochrane review; cited from earlier work.

SMILES strings stand for the structures.

Regarding `Nc1nc2ccc(OC(F)(F)F)cc2s1` [Riluzole], the extension of survival result was “approximately 3 months”.
